According to patent US20100009907A1, “Glucagon-Like Peptides and Uses Thereof” (AMYLIN PHARMACEUTICALS, INC., priority 2006, published 2010):

Molecular target: T1, RINm5f cells expressing endogenous GLP-1, calcitonin, and GIP receptors (Rattus norvegicus, UniProt P32301)
T1 construct: RINm5f cells expressing endogenous GLP-1, calcitonin, and GIP receptors; endogenous in cells; host or cells: RINm5f cells
T1 sequence (P32301 22-463): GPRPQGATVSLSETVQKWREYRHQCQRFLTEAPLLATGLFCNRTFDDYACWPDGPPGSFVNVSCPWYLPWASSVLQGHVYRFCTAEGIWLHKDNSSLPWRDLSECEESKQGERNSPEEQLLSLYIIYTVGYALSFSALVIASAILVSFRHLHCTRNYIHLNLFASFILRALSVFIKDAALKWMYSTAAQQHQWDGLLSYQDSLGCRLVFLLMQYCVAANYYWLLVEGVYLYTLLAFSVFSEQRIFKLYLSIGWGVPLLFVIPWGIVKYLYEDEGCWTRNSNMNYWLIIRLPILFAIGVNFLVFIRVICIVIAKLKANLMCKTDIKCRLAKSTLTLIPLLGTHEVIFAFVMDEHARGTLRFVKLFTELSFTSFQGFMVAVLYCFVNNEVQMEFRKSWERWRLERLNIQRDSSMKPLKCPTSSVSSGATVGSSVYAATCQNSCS
Assay: GLP/GIP/CT cAMP (RIN) assay
Assay type: cell-based
Description: In addition, receptor binding can be measured using cells prepared from confluent cultures of RINm5f cells expressing endogenous GLP-1, calcitonin, and GIP receptors. Cells, and peptide or buffer solution are combined in 384-well plates. After a 30-minute incubation at room temperature in air, cAMP content is measured as recommended in the Perkin-Elmer AlphaScreen kit instructions.
Cells, and peptide or buffer solutions are combined in 384-well plates and incubated at room temperature in air for 30-minutes. cAMP content can then be measured according to recommendations in the Perkin-Elmer AlphaScreen™ kit instructions using the Perkin Elmer Fusion fluorimeter and data are analyzed using XLfit software (IDBS).

SMILES: CC[C@H](C)[C@H](NC(=O)[C@H](CC(C)C)NC(=O)[C@H](Cc1c[nH]c2ccccc12)NC(=O)[C@H](CCC(=O)O)NC(=O)[C@@H](NC(=O)[C@H](Cc1ccccc1)NC(=O)[C@H](CCC(=O)O)NC(=O)[C@H](CCCCN)NC(=O)[C@H](C)NC(=O)[C@H](C)NC(=O)[C@H](CCCCN)NC(=O)[C@H](CCC(=O)O)NC(=O)[C@H](CCC(=O)O)NC(=O)[C@H](CC(C)C)NC(=O)[C@H](Cc1ccc(O)cc1)NC(=O)[C@H](CCC(=O)O)NC(=O)[C@@H](NC(=O)[C@@H](NC(=O)[C@H](CC(=O)O)NC(=O)[C@H](CC(N)=O)NC(=O)[C@@H](NC(=O)[C@H](Cc1ccc(O)cc1)NC(=O)[C@@H](NC(=O)[C@H](Cc1ccccc1)NC(=O)[C@H](CCC(=O)O)NC(=O)[C@H](C)NC(=O)[C@@H](N)Cc1c[nH]cn1)[C@@H](C)O)[C@@H](C)O)C(C)C)[C@@H](C)O)[C@@H](C)CC)C(=O)N[C@@H](CCCCN)C(=O)NCC(=O)NCC(=O)N1CCC[C@H]1C(=O)N[C@@H](CO)C(=O)N[C@@H](CO)C(=O)NCC(=O)N[C@@H](C)C(=O)N1CCC[C@H]1C(=O)N1CCC[C@H]1C(=O)N1CCC[C@H]1C(=O)N[C@@H](CO)C(N)=O [compound 19]
- GLP/GIP/CT cAMP(RIN) EC50: 0.11 nM
